Tests used:
[1] = target: T1, 5-hydroxytryptamine receptor 6 (Homo sapiens, UniProt P50406); assay: Antagonist activity against cAMP accumulation in C6 cells expressing 5-hydroxytryptamine 6 receptor; type: functional, cell-based; details: Rattus norvegicus, filed as antagonist
Procedure, shortened: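 C6 cells detached with trypsin 2 h before assay, seeded ~50 000 cells/well. Compounds added with or without forskolin for 30 min. Data are means of at least three separate experiments.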

Chains of the proteins cited; added tags and fusions are not shown.
UniProt P50406, whole entry: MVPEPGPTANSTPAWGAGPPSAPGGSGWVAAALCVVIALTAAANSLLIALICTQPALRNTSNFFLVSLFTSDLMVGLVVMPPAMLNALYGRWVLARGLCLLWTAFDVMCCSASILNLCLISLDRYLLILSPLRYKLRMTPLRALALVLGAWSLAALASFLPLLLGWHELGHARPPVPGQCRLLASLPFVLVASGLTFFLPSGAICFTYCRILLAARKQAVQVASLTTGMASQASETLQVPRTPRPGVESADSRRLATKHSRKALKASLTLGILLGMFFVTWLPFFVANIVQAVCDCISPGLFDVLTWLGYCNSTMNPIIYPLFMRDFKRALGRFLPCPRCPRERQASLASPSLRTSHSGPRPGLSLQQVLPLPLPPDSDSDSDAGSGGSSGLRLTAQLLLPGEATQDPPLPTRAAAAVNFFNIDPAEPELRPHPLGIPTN

[2] = target: T1, 5-hydroxytryptamine receptor 6; assay: Agonist activity against cAMP accumulation in C6 cells expressing 5-hydroxytryptamine 6 receptor; type: functional, cell-based; details: Rattus norvegicus, filed as agonist

SMILES	Activity [1]	Activity [2]
CCN(CC)CCc1c[nH]c2ccc(NS(=O)(=O)c3ccc4ccccc4c3)cc12	Antagonist	Agonist
Cc1cccc2c1N(C1CCN(S(=O)(=O)c3cccc4ccccc34)CC1)C(=O)OC2	Antagonist	–
CCN(CC)CCc1c[nH]c2ccc(NS(=O)(=O)c3cccc4ccccc34)cc12	–	Agonist
CN(C)CCn1ccc2cc(NS(=O)(=O)c3cccc4ccccc34)ccc21	Antagonist	–
CN1CCC(c2c[nH]c3ccc(NS(=O)(=O)c4ccc(-c5ccccc5)cc4)cc23)CC1	Antagonist	–
CN1CCC(c2c[nH]c3ccc(NS(=O)(=O)c4cccc5cccnc45)cc23)CC1	Antagonist	–
